{
  "sequences": {"note": "Sequences of proteins named here, by UniProt entry; tags and fusion partners are left off. A line that says so, or that is headed by a name, gives the form on record, which may keep a tag or linker.", "UniProt P22303, other isoform, or with tags, fused parts or gaps": "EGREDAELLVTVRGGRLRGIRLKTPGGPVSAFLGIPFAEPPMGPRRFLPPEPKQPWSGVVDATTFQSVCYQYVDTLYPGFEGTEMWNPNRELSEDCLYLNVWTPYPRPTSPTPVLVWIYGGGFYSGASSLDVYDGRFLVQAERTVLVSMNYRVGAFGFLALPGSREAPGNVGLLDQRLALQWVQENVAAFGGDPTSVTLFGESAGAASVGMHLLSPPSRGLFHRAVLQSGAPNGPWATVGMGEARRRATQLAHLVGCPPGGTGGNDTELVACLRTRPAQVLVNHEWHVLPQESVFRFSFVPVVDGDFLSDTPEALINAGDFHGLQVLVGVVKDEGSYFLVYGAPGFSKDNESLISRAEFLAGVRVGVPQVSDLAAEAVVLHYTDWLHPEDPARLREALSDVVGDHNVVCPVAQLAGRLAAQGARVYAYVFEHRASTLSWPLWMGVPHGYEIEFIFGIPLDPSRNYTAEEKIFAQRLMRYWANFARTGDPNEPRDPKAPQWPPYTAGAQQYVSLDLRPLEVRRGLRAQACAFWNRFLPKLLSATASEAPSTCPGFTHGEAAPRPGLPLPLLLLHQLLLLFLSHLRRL"},
  "source": "paper PMC4642525",
  "about": "“Conjugates of γ-Carbolines and Phenothiazine as new selective inhibitors of butyrylcholinesterase and blockers of NMDA receptors for Alzheimer Disease” (Scientific Reports, 2015)",
  "biological_target": "T1, Acetylcholinesterase (AChE, EC 3.1.1.7, from human erythrocyte) (Homo sapiens, UniProt P22303)",
  "T1 construct": "Acetylcholinesterase (AChE, EC 3.1.1.7, from human erythrocyte); purchased Sigma-Aldrich (Germany); host or cells: human erythrocytes",
  "assay": "biochemical",
  "description": "Acetylcholinesterase (AChE, EC 3.1.1.7, from human erythrocyte), butyrylcholinesterase (BChE, EC 3.1.1.8, from equine serum), carboxylesterase (CaE, EC 3.1.1.1, from porcine liver), acetylthiocholine iodide (ATCh), butylthiocholine iodide (BTCh), 5,5´-dithiobis-(2-nitrobenzoic acid) (DTNB), 4-nitrophenyl acetate (4-NPA), were purchased from Sigma-Aldrich (Germany).\nAChE and BChE activities were measured by the method of Ellman and coworkers as described earlier. The assay solution consisted of 0.1 M K/Na phosphate buffer pH 7.5, 25 °C with the addition of 0.33 mM DTNB, 0.02 unit/mL of AChE or BChE and 1 mM of substrate (ATCh or BTCh, respectively). Assays were carried out with a blank containing all components except ATCh and BTCh in order to account for non-enzymatic reaction.\nThe tested compounds were dissolved in DMSO; the incubation mixture contained 2% of the solvent. […] The test compounds were added to the assay solution and preincubated at 25 °C with the enzymes for 10 min followed by the addition of substrate. A parallel control was made for the assay solution with no inhibitor. […] The results were expressed as the mean ± SEM. The reaction rates in the presence and absence of inhibitor were compared, and the percent of residual enzyme activity due to the presence of test compounds was calculated.",
  "data": [
    {"compound": "CN(C)c1ccc2nc3ccc(=[N+](C)C)cc-3sc2c1", "note": "[MB, methylene blue, reference compound]", "values": [
      {"measurement": "IC50", "value": "1210 ± 90", "unit": "nM"}
    ]}
  ]
}
